Where “and” joins values, the source holds several entries; their conditions need not be identical. Identical values can stand only once. This is a selection; strong and weak results do not stand in their true shares. Records with an inconclusive call do not appear. Calls of active or inactive are those of the source. The call rests on the fitted dose curve; in most records, active means well fitted inhibition curve with a large enough effect; inconclusive means small, poorly fitted or top-dose-only effect; inactive means flat fitted curve, though single readings scatter.
Potency means the concentration at half of the fitted maximal effect.

This assay is described as follows: qHTS for Inhibitors of human tyrosyl-DNA phosphodiesterase 1 (TDP1): qHTS in cells in absence of CPT. Further: nearly all actives have a fitted effect of over 55% in size. Conditions: DT40 Tdp1-/- hTDP1 cells, no CPT, ATP luminescence, 48 h.
For the compound `COc1cc(/C=N/NC(=O)c2ccc(O)cc2)ccc1Oc1ccc([N+](=O)[O-])cn1`, the Potency is active: 20.6 µM.
For `Nc1nccc(NCCSCc2ccccc2)n1` the value was active: 20.6 µM; for `CC[n+]1c(/C=C/N(C)c2ccccc2)oc2ccc(Cl)cc21`, active: 2.59 µM.
Next, `CC(=O)C1=NN(c2ccccc2)C(c2ccc3c(c2)OCO3)N1c1ccc(N2CCOCC2)cc1` (stereo not drawn): active: 16.4 µM.
Consider `O=c1[nH]c(=O)n(C(c2ccccc2)(c2ccccc2)c2ccccc2)cc1N(CCO)CCO`, for which the Potency is active: 11.6 µM.
For the compound `COc1ccc(Nc2nc(Nc3ccc(OC)cc3)nc(SC3=NCCS3)n2)cc1`, the Potency was active: 25.9 µM.
Next, `CCN(CC)CCCC(C)Nc1c2ccc(Cl)cc2nc2ccc(OC)cc12` (stereo not drawn): active: 4.47 µM and active: 2.31 µM.
Next, `CC[n+]1c(/C=C/N(C)c2ccccc2)oc2ccccc21`: active: 0.651 µM; `CC[n+]1c(/C=C/N(C)c2ccccc2)oc2ccc(F)cc21`: active: 4.11 µM.
For `O=C(NCCc1ccccc1)c1oc2ccccc2c1COc1ccccc1` the value was active: 20.6 µM; for `CN(Cc1cnc2nc(N)nc(N)c2n1)c1ccc(C(=O)N[C@@H](CCC(=O)O)C(=O)O)cc1`, active: 10.6 nM and active: 10.3 nM; for `Cc1ccc(-c2csc(Nc3ccccc3)[n+]2CCc2ccccc2)cc1`, active: 16.4 µM.
Turning to `CN(Cc1cnc2nc(N)nc(N)c2n1)c1ccc(C(=O)NC(CCC(=O)O)C(=O)O)cc1` (stereo not drawn), the Potency is active: 46.1 nM and active: 29.1 nM.

The values are drawn from PubChem BioAssay AID686978 (National Center for Advancing Translational Sciences (NCATS), 2013).
